Sequences of proteins named here, by UniProt entry; tags and fusion partners are left off. A change or cut given only in a name is not applied to a line headed by its entry.
UniProt P07639: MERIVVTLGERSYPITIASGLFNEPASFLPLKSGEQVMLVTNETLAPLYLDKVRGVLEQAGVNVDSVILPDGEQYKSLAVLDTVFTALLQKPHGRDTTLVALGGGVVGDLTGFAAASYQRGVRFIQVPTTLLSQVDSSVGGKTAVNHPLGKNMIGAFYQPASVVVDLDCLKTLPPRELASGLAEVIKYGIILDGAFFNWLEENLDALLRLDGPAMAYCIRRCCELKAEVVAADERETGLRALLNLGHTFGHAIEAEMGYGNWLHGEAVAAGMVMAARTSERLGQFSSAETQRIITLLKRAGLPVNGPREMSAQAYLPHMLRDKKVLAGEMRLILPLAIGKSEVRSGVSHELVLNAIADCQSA

In ChEMBL document CHEMBL1126355, “The basis for slowly reversible inhibition of dehydroquinate synthase: a case of mistaken identity?” (Bioorg Med Chem Lett, 1992):

Molecular target: 3-dehydroquinate synthase (Escherichia coli K-12, UniProt P07639)
Experiment: Inhibition constant against 3-dehydroquinate synthase

**Q.** Which Ki does the source give for `O=C(O)C1(O)CCC(O)C(CP(=O)(O)O)C1` (stereo unspecified) here?
**A.** 220 nM
